Experiments:
Details in all cases: 100 μM
[1] = target: MMP-1 (Homo sapiens, UniProt P03956); test: MMP-1 inhibition assay
[2] = target: MMP-2 (Homo sapiens, UniProt P08253); test: MMP-2 inhibition assay
[3] = target: MMP-3 (Homo sapiens, UniProt P08254); test: MMP-3 inhibition assay
[4] = target: TACE (Homo sapiens, UniProt P78536); test: TACE inhibitor screening kit
[5] = target: COX-1 (Ovis aries, UniProt P05979); test: Fluorometric COX-1 inhibitor assay

Sequences of proteins named here, by UniProt entry; tags and fusion partners are left off. Residues count along the entry.
UniProt P03956, 100-469 limits assumed: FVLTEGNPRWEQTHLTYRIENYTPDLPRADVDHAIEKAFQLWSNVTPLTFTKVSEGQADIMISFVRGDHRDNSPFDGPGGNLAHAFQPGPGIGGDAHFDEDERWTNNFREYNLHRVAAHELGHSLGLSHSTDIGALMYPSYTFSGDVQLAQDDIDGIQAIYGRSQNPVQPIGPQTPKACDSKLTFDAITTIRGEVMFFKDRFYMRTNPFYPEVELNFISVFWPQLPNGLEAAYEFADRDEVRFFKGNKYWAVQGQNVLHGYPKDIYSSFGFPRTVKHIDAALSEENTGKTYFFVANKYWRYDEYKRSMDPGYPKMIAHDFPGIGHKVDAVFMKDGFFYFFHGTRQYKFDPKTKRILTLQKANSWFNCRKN
UniProt P08253, 110-660 limits assumed: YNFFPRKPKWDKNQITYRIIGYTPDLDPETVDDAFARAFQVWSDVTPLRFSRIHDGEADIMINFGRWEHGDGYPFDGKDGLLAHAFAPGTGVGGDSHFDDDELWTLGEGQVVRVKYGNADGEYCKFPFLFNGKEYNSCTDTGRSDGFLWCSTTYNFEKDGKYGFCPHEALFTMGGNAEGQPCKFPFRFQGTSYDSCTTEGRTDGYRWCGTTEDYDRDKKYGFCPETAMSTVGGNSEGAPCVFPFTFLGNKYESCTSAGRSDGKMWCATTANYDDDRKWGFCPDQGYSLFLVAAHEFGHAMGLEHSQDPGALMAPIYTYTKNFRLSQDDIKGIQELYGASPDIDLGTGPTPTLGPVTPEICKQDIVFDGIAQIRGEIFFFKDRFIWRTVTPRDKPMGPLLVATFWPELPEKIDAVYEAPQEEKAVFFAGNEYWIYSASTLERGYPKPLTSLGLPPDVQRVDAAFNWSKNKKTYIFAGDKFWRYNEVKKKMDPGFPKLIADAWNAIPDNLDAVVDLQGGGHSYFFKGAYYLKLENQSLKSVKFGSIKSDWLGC
UniProt P08254, 100-477 limits assumed: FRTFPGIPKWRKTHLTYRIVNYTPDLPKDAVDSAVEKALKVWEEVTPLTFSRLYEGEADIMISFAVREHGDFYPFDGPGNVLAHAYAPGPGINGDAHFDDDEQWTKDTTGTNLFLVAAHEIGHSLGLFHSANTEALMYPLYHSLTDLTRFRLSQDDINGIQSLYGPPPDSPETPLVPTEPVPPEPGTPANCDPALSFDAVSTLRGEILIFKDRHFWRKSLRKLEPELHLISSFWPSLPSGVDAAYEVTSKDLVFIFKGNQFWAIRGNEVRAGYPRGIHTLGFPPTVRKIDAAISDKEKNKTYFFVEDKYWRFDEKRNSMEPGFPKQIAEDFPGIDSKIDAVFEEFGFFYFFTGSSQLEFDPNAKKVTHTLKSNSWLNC
UniProt P78536, 215-824 limits assumed: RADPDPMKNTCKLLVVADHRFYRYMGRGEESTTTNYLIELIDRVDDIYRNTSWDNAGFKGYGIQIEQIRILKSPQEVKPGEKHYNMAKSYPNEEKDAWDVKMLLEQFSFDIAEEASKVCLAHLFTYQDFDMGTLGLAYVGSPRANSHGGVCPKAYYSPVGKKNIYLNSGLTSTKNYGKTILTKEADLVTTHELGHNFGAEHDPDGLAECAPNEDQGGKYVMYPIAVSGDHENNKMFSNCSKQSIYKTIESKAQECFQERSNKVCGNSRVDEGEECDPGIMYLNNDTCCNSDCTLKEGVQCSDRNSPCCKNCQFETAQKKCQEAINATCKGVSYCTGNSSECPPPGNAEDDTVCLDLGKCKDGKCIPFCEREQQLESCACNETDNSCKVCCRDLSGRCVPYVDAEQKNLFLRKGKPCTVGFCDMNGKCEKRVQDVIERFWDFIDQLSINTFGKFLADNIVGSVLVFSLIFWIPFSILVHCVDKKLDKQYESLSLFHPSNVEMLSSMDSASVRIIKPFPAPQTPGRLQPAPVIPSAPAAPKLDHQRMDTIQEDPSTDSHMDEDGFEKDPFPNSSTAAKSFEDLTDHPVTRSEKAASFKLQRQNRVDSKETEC
UniProt P05979, 25-600 limits assumed: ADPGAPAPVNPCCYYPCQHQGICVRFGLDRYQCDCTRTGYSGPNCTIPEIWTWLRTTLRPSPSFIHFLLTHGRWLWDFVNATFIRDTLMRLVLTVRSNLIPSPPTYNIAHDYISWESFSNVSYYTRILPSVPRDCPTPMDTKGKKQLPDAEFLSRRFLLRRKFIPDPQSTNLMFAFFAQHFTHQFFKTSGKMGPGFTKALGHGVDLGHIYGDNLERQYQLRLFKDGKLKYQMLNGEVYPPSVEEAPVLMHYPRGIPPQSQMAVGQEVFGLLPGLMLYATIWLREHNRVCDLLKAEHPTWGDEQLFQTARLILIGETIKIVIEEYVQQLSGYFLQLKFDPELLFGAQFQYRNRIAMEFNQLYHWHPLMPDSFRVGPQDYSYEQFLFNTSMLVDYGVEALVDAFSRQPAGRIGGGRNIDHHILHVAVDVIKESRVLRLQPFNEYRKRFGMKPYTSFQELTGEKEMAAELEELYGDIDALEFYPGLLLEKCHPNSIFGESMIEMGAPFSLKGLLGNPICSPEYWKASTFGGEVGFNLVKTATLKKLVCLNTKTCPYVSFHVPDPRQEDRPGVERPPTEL

CC(C)CC(C(=O)Nc1ccc(S(=O)(=O)C(F)(F)F)cc1)P(=O)(O)O (centres unmarked)
n.i. (n.i. = <10% inhibition): % inhibition MMP-1 [1] | % inhibition MMP-2 [2] | % inhibition MMP-3 [3] | % inhibition TACE [4] | % inhibition COX-1 [5]

Source: article PMC10755728, “Inhibitors of the Elastase LasB for the Treatment of Pseudomonas aeruginosa Lung Infections” (ACS Central Science, 2023)
